B1: K-bioA-WLA-YRPKam (peptide)
peptide: KAWLAYPDSVPYRPK
modifications: biotin on the N-terminal lysine (K-bio); C-terminal amide (am)
B2: YSA-GSGSK-bio (peptide)
peptide: YSAYPDSVPMMSGSGSK
modifications: biotin on the side chain of the C-terminal lysine (K-bio)
notes: YSA with C-terminal GSGSK linker and biotin on the lysine side chain; also called YSA-GSGSK-biotin; YSA-GSGSK-bio peptide
B3: YSA-GSGSK (peptide)
peptide: YSAYPDSVPMMSGSGSK
B4: βA-WLA-YRPKam (peptide)
peptide: AWLAYPDSVPYRPK
modifications: N-terminal beta-alanine (βA); C-terminal amide (am)
notes: also called BA-WLA-YRPKam

Sequences of proteins named here, by UniProt entry; tags and fusion partners are left off. A line that says so, or that is headed by a name, gives the form on record, which may keep a tag or linker.
UniProt P29317, other isoform, or with tags, fused parts or gaps limits assumed, form in doubt: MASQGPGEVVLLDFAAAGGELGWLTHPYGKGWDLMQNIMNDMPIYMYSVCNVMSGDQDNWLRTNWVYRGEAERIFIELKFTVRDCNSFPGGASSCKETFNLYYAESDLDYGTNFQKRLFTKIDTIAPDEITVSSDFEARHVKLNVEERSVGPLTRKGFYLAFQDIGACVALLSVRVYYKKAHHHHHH
UniProt P29317, whole entry: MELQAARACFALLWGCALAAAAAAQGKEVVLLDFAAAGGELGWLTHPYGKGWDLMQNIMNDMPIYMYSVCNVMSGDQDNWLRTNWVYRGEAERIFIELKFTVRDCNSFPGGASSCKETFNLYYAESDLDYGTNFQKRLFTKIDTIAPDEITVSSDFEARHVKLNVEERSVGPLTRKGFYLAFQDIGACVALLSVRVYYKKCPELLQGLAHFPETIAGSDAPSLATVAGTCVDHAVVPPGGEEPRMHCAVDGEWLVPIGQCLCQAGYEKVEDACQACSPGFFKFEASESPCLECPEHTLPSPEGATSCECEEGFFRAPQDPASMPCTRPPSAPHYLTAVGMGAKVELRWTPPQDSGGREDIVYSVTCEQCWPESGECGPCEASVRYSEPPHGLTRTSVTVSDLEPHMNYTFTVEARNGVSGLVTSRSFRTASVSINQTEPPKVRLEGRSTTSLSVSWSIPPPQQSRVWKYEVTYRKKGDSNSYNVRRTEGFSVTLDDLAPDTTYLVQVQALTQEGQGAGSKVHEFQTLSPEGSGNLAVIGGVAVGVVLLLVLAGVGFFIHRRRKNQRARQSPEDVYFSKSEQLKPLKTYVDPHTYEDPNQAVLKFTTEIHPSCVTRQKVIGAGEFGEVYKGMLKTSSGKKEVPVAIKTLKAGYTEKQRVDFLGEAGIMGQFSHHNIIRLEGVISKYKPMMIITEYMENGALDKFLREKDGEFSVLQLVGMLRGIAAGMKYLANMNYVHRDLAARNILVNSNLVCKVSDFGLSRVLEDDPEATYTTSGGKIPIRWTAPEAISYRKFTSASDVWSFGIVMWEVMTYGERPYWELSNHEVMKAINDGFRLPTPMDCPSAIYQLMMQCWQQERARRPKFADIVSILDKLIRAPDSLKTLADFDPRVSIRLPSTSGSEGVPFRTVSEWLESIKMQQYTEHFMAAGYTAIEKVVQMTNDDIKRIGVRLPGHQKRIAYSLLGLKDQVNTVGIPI

Legend:
[1] = target: T1, EphA2 ligand binding domain (EphA2 LBD, residues 28-200) with N-terminal MASQGPG and C-terminal Ala-6xHis tag (UniProt P29317 28-200); test: ITC, peptide titrated into EphA2 LBD, 23 °C
T1 construct: range 28-200; Expressed in E. coli Origami 2 (DE3); used for ITC and crystallization

[2] = target: T1, EphA2 ligand binding domain (EphA2 LBD, …); test: ITC, peptide titrated into EphA2 LBD, 23 °C; average ± SE (number of experiments)
[3] = target: T2, EphA2 extracellular domain fused to the Fc portion of an antibody (EphA2 Fc); test: competition ELISA: inhibition of ephrin-A5 AP binding to immobilized EphA2 Fc; average ± SE (number of experiments)
T2 construct: extracellular domain; Immobilized in the ELISAs

| Binder | N (binding stoichiometry) [1] | TΔS [1] [kcal/mol] | Kd [2] [nM] | IC50 [3] [nM] |
| --- | --- | --- | --- | --- |
| B1 | 1.06 | 14.3 | 27 | 13 |
| B2 |  | 19.2 |  |  |
| B3 |  | 15.5 |  |  |
| B4 |  | 21.2 |  |  |

Reference: patent US12398179 (SANFORD BURNHAM PREBYS MEDICAL DISCOVERY INSTITUTE, dated 2025)
